This passage reports Ki results from BindingDB's records for 15501038.

The chains behind the UniProt entries cited, without tags or fusion partners.
UniProt P22748, whole entry, looked up: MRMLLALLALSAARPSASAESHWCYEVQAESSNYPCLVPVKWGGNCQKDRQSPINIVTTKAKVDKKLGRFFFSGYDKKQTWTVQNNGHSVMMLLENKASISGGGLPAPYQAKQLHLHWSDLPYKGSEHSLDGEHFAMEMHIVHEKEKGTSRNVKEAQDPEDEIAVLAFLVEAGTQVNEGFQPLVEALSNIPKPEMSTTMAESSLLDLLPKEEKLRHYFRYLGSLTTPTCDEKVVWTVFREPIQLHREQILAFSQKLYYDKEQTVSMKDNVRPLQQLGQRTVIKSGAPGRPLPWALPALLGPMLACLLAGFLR

For the experiment, the target named is Carbonic anhydrase 4 (Homo sapiens, UniProt P22748).

SMILES strings stand for the structures.

Take `[N-]=[N+]=N`: the affinity, expressed as Ki, was 65.1 mM.
